## Binding of CDR-mutated scFvs to a peptide of the spike HR2 region

Binding partner: SARS-CoV-2 spike HR2 peptide, sequence PDVDLGDISGINAS.

Parent: Ab-14, a human scFv built as VH, a 15-residue (Gly4Ser)3 linker, VL. Only the CDRs of the heavy chain vary.
VH: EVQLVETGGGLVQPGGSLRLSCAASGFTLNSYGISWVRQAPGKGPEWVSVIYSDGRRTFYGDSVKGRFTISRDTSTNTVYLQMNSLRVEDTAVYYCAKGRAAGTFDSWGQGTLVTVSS
VL: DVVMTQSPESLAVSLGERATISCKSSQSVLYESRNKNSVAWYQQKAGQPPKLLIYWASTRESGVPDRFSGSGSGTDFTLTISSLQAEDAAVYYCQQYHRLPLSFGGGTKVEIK

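AAYL49 was designed without a model: most single CDR substitutions and a random sample of double and triple ones. In AlphaSeq, yeast of one mating type display the scFv and yeast of the other type display the target. Binding brings cells together so that they mate, and sequencing counts the barcode pairs among the diploids. The ratio of observed to expected reads was calibrated, replicate by replicate, on BCL2-family standards whose Kd was known from biolayer interferometry. Mating was done three times.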

Substitutions are numbered in sequence along the VH above, starting at 1 (not Kabat). Every variant below is changed at S107 of the VH (sequential numbering). Kd is apparent (estimated from mating counts) and averaged on the log scale over replicates with a signal. Smaller is tighter. "nd" marks a missing value. The strain was present, yet no cells mated with the target were sequenced in any replicate, which points to weak or no binding. Order: sorted from the lowest average up, undetected variants last.

* S31E/R100L/S107D: 5.4 nM (3 of 3 replicates)
* T28H/G61V/S107F: 15 nM (3 of 3 replicates)
* G61M/A102W/S107Y: 31 nM (3 of 3 replicates)
* A101H/D106L/S107T: 42 nM (3 of 3 replicates)
* S53G/S107M: 110 nM (1 of 3 replicates)
* V50Y/D106G/S107A: 130 nM (1 of 3 replicates)
* G103S/S107Q: 190 nM (3 of 3 replicates)
* I51D/G61Q/S107R: 290 nM (3 of 3 replicates)
* D62P/A102L/S107M: 340 nM (3 of 3 replicates)
* S63I/R100G/S107I: 450 nM (1 of 3 replicates)
* D62N/V64N/S107L: 1.9 µM (3 of 3 replicates)
* I34T/S107I: 2.0 µM (2 of 3 replicates)
* F27N/R57N/S107T: 2.4 µM (3 of 3 replicates)
* I34A/G61C/S107L: 2.4 µM (2 of 3 replicates)
* Y32M/S107T: 2.7 µM (3 of 3 replicates)
* V50P/D54E/S107F: 7.2 µM (1 of 3 replicates)
* T28M/S107F: 7.6 µM (3 of 3 replicates)
* L29V/A101R/S107I: 8.1 µM (3 of 3 replicates)
* T28C/F105G/S107Y: 9.7 µM (3 of 3 replicates)
* D62C/F105V/S107K: 11 µM (1 of 3 replicates)
* F27V/S35Q/S107G: 19 µM (1 of 3 replicates)
* D62A/A102T/S107M: 19 µM (1 of 3 replicates)
* N30E/Y52K/S107P: 24 µM (2 of 3 replicates)
* V50H/K65I/S107C: 30 µM (3 of 3 replicates)
* I51K/G99R/S107H: 35 µM (2 of 3 replicates)
* G61W/K65A/S107G: 96 µM (2 of 3 replicates)
* Y32F/D54A/S107T: 140 µM (1 of 3 replicates)
* G55L/G103A/S107H: 220 µM (1 of 3 replicates)
* S31N/I34D/S107E: 550 µM (1 of 3 replicates)
* N30L/A102I/S107A: nd (0 of 3 replicates)
* Y32F/I51P/S107W: nd (0 of 3 replicates)
* G61W/S107K: nd (0 of 3 replicates)
* G26Q/S35C/S107G: nd (0 of 3 replicates)
* V50R/R100D/S107D: nd (0 of 3 replicates)
* G26L/L29R/S107F: nd (0 of 3 replicates)
* S53Y/G61D/S107F: nd (0 of 3 replicates)
* L29N/S107D: nd (0 of 3 replicates)
* T58I/G99Y/S107M: nd (0 of 3 replicates)
* K65V/G103C/S107C: nd (0 of 3 replicates)
* I51Q/K65H/S107Q: nd (0 of 3 replicates)
* D54I/T58Q/S107A: nd (0 of 3 replicates)
* V50P/Y60M/S107P: nd (0 of 3 replicates)
* Y60P/D106T/S107P: nd (0 of 3 replicates)
* T58K/G103M/S107C: nd (0 of 3 replicates)
* G99E/D106P/S107M: nd (0 of 3 replicates)
* Y32D/S53K/S107Q: nd (0 of 3 replicates)
* F27T/S35V/S107M: nd (0 of 3 replicates)
* I34S/V64D/S107H: nd (0 of 3 replicates)
* F27I/A101H/S107H: nd (0 of 3 replicates)

The opening 7 entries, copied out:

{"changes": "S31E/R100L/S107D", "apparent Kd": "5.4 nM", "replicates with signal": "3 of 3"}
{"changes": "T28H/G61V/S107F", "apparent Kd": "15 nM", "replicates with signal": "3 of 3"}
{"changes": "G61M/A102W/S107Y", "apparent Kd": "31 nM", "replicates with signal": "3 of 3"}
{"changes": "A101H/D106L/S107T", "apparent Kd": "42 nM", "replicates with signal": "3 of 3"}
{"changes": "S53G/S107M", "apparent Kd": "110 nM", "replicates with signal": "1 of 3"}
{"changes": "V50Y/D106G/S107A", "apparent Kd": "130 nM", "replicates with signal": "1 of 3"}
{"changes": "G103S/S107Q", "apparent Kd": "190 nM", "replicates with signal": "3 of 3"}

For reference, the parent read 4.4 nM as the reference entry and 13 µM (one replicate of three) as a member of this library. As a blank, each scFv also met three strains without target: over library AAYL49, 15% of these pairings were detected, typically at 11 µM and seldom below 680 nM.

Reference: Engelhart et al. 2022, doi:10.1038/s41597-022-01779-4. File: FLAb, binding data.